Measured values as given in ChEMBL document CHEMBL1147639, “Quinolines as extremely potent and selective PDE5 inhibitors as potential agents for treatment of erectile dysfunction” (Bioorg Med Chem Lett, 2004).

Target: cGMP-specific 3',5'-cyclic phosphodiesterase (Homo sapiens, UniProt O76074)
Experiment: Inhibition of phosphodiesterase 5 from human platelets

- IC50: 0.4 nM
Compound: CCc1cc(C#N)cc2c(NCc3ccc(OC)c(Cl)c3)ccnc12
